System: MDCK cells carrying the MDR-1 gene
Assay: MDCK cell permeability assay
Format: in vitro ADME, canine
Settings: MDCK MDR-1 monolayer, 10 μM, 30 min

Labetolol [reference compound]
Papp A-B (apical to basolateral): 1.2 cm/sec, x10-6 | Papp B-A (basolateral to apical): 18.1 cm/sec, x10-6
